The assay is filed under the species Homo sapiens. The experiment in a line: Selectivity ratio, ratio of RBA for human recombinant ERbeta to RBA for human recombinant ERalpha.
On to `Oc1ccc(/C=C/C=C/c2cc(O)cc(O)c2)cc1`, for which the Ratio was 3.35. In the case of `CC(C)(C)c1cc(/C=C/C=C/c2cc(O)cc(O)c2)cc(C(C)(C)C)c1O`, the Ratio came to 1.16. The same measure for `CCC(CC)c1cc(/C=C/c2cc(O)cc(O)c2)cc(C(CC)CC)c1O`: 0.54; for `CC(C)(C)c1cc(/C=C/c2cc(C(C)(C)C)c(O)c(C(C)(C)C)c2)cc(C(C)(C)C)c1O`: 0.6; for `CC(C)(C)c1cc(/C=C/c2cc(O)cc(O)c2)cc(C(C)(C)C)c1O`: 0.81. With `CC(C)(C)c1cc(/C=C/c2cc(O)cc(O)c2)ccc1O` the figure was 0.59; with `CC(C)(C)c1cc(/C=C/c2ccc(O)cc2)ccc1O`, 3.28.

For `CCC(CC)c1cc(/C=C/c2cc(O)cc(O)c2)ccc1O`, the Ratio turned out to be 0.79. Regarding `CCC(CC)c1cc(/C=C/C=C/c2cc(O)cc(O)c2)ccc1O`, the Ratio worked out at 0.55. The same measure for `CC(C)(C)c1cc(/C=C/C=C/c2cc(O)cc(O)c2)ccc1O`: 1.1; for `CCC(CC)c1cc(/C=C/C=C/c2cc(O)cc(O)c2)cc(C(CC)CC)c1O`: 0.89.

(Values after ChEMBL document CHEMBL1641570, “New hydroxystilbenoid derivatives endowed with neuroprotective activity and devoid of interference with estrogen and aryl hydrocarbon receptor-mediated transcription” (Bioorg Med Chem, 2011).)
